By IC50 is commonly meant the concentration that inhibits the measured activity by half.

Protein sequences, listed by entry. Tags and fused reporters are not part of them. Lines headed by an entry give the natural chain unless they say otherwise; changes in a name come on top.
UniProt P07711: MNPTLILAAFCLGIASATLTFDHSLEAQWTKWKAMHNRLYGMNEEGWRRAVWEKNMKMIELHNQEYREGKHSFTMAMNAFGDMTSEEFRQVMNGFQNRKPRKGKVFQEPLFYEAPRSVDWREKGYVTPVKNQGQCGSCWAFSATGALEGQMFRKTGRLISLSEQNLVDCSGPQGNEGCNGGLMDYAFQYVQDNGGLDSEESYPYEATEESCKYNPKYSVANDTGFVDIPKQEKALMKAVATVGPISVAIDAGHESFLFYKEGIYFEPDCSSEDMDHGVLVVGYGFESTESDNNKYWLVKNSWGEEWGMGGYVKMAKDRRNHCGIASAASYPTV
UniProt Q95PM0, whole entry: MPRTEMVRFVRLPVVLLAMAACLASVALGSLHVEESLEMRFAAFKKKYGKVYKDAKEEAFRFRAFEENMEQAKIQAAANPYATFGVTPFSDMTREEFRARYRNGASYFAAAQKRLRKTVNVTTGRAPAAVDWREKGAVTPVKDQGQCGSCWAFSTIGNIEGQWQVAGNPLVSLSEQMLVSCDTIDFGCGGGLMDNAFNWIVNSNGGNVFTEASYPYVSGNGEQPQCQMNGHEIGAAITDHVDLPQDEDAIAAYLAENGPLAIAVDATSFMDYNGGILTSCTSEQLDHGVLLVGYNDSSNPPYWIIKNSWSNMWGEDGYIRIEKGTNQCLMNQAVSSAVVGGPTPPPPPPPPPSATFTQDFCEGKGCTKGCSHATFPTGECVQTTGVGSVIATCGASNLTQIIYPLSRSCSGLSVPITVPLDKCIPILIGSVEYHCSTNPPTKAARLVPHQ

Experimental findings from ChEMBL document CHEMBL1155239, “Structure-guided development of selective TbcatB inhibitors” (J Med Chem, 2009) are described below.

Each structure is given as a SMILES string.

For one test, the target named is Procathepsin L (Homo sapiens, UniProt P07711). Briefly: Inhibition of human liver cathepsin L.
Another test deals with Rhodesain (Trypanosoma brucei rhodesiense, UniProt Q95PM0). Briefly: Inhibition of Trypanosoma brucei rhodesiense rhodesain.

As to `C=Cc1cccc(-c2cccc(CNc3nc(C#N)nc4c3ncn4CCCO)c2)c1`, the half-inhibitory concentration (IC50) at Procathepsin L and against Rhodesain was 1500 nM throughout.
